This passage reports BPR and Ratio results from ChEMBL document CHEMBL3588848, “Dihydropyrrolopyrazol-6-one MCHR1 antagonists for the treatment of obesity: Insights on in vivo efficacy from a novel FLIPR assay setup” (Bioorg Med Chem Lett, 2015).

Series [1] can be described thus: Ratio of drug level in brain to plasma in Sprague-Dawley rat assessed as 2-(4-chlorophenyl)-5-(4-(2-hydroxy-2-methylpropoxy)-3-methoxyphenyl)-4,5-dihydropyrrolo[3,4-c]pyrazol-6(2H)-one at 30 mg/kg, po qd measured at 20 hrs post dose.
Series [2] can be described thus: Ratio of unbound concentration in Sprague-Dawley rat brain assessed as 2-(4-chlorophenyl)-5-(4-(2-hydroxy-2-methylpropoxy)-3-methoxyphenyl)-4,5-dihydropyrrolo[3,4-c]pyrazol-6(2H)-one at 30 mg/kg, po qd to Ki for rat MCHR1 assessed as 2-(4-chlorophenyl)-5-(4-(2-hydroxy-2-methylpropoxy)-3-methoxyphenyl)-4,5-dihydropyrrolo[3,4-c]pyrazol-6(2H)-one. Format: ADME, organism-based. The settings on record: in vivo.

For `COc1cc(N2Cc3cn(-c4ccc(Cl)cc4)nc3C2=O)ccc1OCC(C)(C)OC(=O)CN`, in series [1], the BPR amounted to 0.42. Besides, the Ratio in series [2] was found to be 2.8.
